For 34 molecules, inhibition results are on record in PubChem BioAssay AID492956 (The Scripps Research Institute Molecular Screening Center, 2010).

The entries are a selection whose mix differs from that of the whole data set. Activity calls are given as the source filed them.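 Rule for the calls: active = inhibition above the mean over all tested compounds plus 3 SD (cut at about 30% in these data); inactive = the rest.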

For the assay, the target named is Platelet-activating factor acetylhydrolase 2, cytoplasmic (Homo sapiens) (UniProt Q99487). Description: PAFAH2 enzyme inhibitors, primary screen, biochemical, fluorescence polarization, human (AID 492956).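 Note: inhibitors block probe labeling of enzyme so polarization drops; 0% = enzyme with DMSO and 100% = wells lacking PAFAH2 protein.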 Conditions: recombinant PAFAH2, FP-rhodamine activity probe, at 3.39 µM, hits give high values.
Regarding `O=[N+]([O-])c1ccc(OP2(=O)COCCO2)cc1` (centres undefined), the inhibition (as a rule, the relative decrease from the control value, in per cent) was inactive: 6.93%.
The same measure for `Cc1cc(-c2cccc3ccccc23)c(C)cn1.O=[N+]([O-])c1cc([N+](=O)[O-])c(O)c([N+](=O)[O-])c1`: inactive: -1.57%; for `O=[N+]([O-])c1cc([N+](=O)[O-])c(NCC2CCS(=O)(=O)C2)c([N+](=O)[O-])c1` (centres undefined): inactive: -6.37%.
For the molecule `CCOP(C)(=S)SCC(=O)NC(C)(CC)C(=O)O` (centres undefined), the inhibition is inactive: -20.4%.
On to `CP(=O)(Nc1ccc(SC(F)(F)F)cc1)Oc1ccc(F)cc1` (centres undefined), for which the inhibition was inactive: -2.99%.
Regarding `Cc1ccccc1NP(C)(=O)Nc1ccccc1C`, the inhibition is inactive: -5.65%.
`CP(=O)(Nc1ccc2c(c1)OCCO2)Oc1ccccc1` (centres undefined): the inhibition was inactive: -1.3%.
As for `O=C(OCCCN1CCCC1)C(O)(c1ccccc1)C1CCCCC1` (centres undefined), the inhibition is inactive: -5.42%.
Turning to `COc1ccccc1OP(C)(=O)Nc1c(C)n(C)n(-c2ccccc2)c1=O` (centres undefined), the inhibition was inactive: -10.9%.
On to `CCc1ccc(OP(C)(=O)Nc2cccnc2)cc1` (centres undefined), for which the inhibition was inactive: -0.1%.
Turning to `CP(=O)(Oc1ccccc1)N1CCOC1=O` (centres undefined), the inhibition was inactive: 1.1%.
`COc1ccc(OP(C)(=O)Nc2ccc(Br)cc2)cc1` (centres undefined): the inhibition was inactive: 6.35%.
Regarding `CCN(CC)CC(O)COC(=O)C(O)(c1ccccc1)C1CCCCC1` (centres undefined), the inhibition is inactive: 5.71%.
As for `CN(C)C(=O)c1c([N+](=O)[O-])cc([N+](=O)[O-])cc1[N+](=O)[O-]`, the inhibition was inactive: -2.24%.
The same measure for `CC(C)(C)c1ccc(OP(C)(=O)O)cc1`: inactive: -6.1%; for `COc1ccccc1OP(C)(=O)Nc1ccccc1Br` (centres undefined): inactive: -3.71%; for `CP(=O)(Nc1ccc(Cl)cc1)Oc1ccc(F)cc1` (centres undefined): inactive: 2.66%.
For the molecule `CCOC(=O)c1ccc(NP(C)(=O)Oc2ccc(Cl)cc2)cc1` (centres undefined), the inhibition was inactive: 4.65%.
Consider `CP(=O)(OC12CC3CC(CC(C3)C1)C2)OC12CC3CC(CC(C3)C1)C2`, for which the inhibition was inactive: 2.1%.
As to `COc1ccccc1OP(C)(=O)Nc1ccc(C)c(C)c1` (centres undefined), the inhibition is inactive: 5.76%.
In the case of `COc1ccc(OP(C)(=O)Nc2ccccc2Br)cc1` (centres undefined) it was inactive: 3.22%.
For `Cc1cc(C)cc(OP(C)(=O)Nc2cccc(C(F)(F)F)c2)c1` (centres undefined), the inhibition was inactive: 0.24%.
For the molecule `O=C1C(O)=C([N+](=O)[O-])C(=O)C(O)=C1[N+](=O)[O-]`, the inhibition was inactive: 4.74%.
On to `CP(=O)(OCCOc1ccccc1)OCCOc1ccccc1`, for which the inhibition was inactive: -2.64%.
Take `CP(=O)(Nc1ccc(Cl)cc1Cl)Oc1ccccc1` (centres undefined): the inhibition was inactive: 0.78%.
Take `CCCCCCCCCCCCCCCC1C[N+](C)(C)CCOP(C)(=O)O1` (centres undefined): the inhibition was inactive: 2.82%.
With `COc1ccc(OP(C)(=O)Nc2ccccn2)cc1` (centres undefined), the inhibition is inactive: -1.88%.
On to `CN(C)CCOC(=O)C(O)(c1ccccc1)C1CCCC1` (centres undefined), for which the inhibition is inactive: 0.98%.
As to `COc1ccccc1OP(C)(=O)Nc1ccc(Br)cc1` (centres undefined), the inhibition is inactive: -7.81%.
Turning to `COc1ccccc1OP(C)(=O)Nc1ccc(C)cc1C` (centres undefined), the inhibition was inactive: -3.05%.
For `CP(=O)(Nc1ccccn1)Oc1ccccc1` (centres undefined), the inhibition is inactive: 2.85%.
In the case of `CCc1ccc(OP(C)(=O)O)cc1`, the inhibition was inactive: -1.37%.
Take `O=[N+]([O-])c1cc([N+](=O)[O-])c(Nc2ccccn2)c([N+](=O)[O-])c1`: the inhibition is inactive: 9.63%.
As to `Cc1c(NP(C)(=O)Oc2ccc(C(C)C)cc2)c(=O)n(-c2ccccc2)n1C` (centres undefined), the inhibition is inactive: 4.36%.
